Test results published in ChEMBL document CHEMBL3425496, “Exploring experimental and computational markers of cyclic peptides: Charting islands of permeability” (Eur J Med Chem, 2015).

Columns and labels:
[1] = Apparent permeability of the compound at 50 uM after 5 hrs by PAMPA method; format: physicochemical
[2] = Apparent permeability from apical to basolateral side in human Caco2 cells by LC-MS analysis; format: ADME, cell-based; conditions: Caco-2

Compound | Papp at 5 h, 50 µM [1] | Papp A→B [2]
CC(C)C[C@@H]1NC(=O)[C@H](CC(C)C)NC(=O)[C@@H](CC(C)C)NC(=O)[C@H](Cc2ccc(O)cc2)NC(=O)[C@@H]2CCCN2C(=O)[C@H](CC(C)C)NC1=O | 0.59 ×10⁻⁶ cm/s | 0.37 ×10⁻⁶ cm/s
CC(C)C[C@@H]1NC(=O)[C@@H](CC(C)C)NC(=O)[C@@H](CC(C)C)NC(=O)[C@H](Cc2ccc(O)cc2)NC(=O)[C@@H]2CCCN2C(=O)[C@@H](CC(C)C)NC1=O | 3.49 ×10⁻⁶ cm/s | 12 ×10⁻⁶ cm/s
CC(C)C[C@@H]1NC(=O)[C@H](Cc2ccc(O)cc2)N(C)C(=O)[C@H]2CCCN2C(=O)[C@H](CC(C)C)NC(=O)[C@H](CC(C)C)N(C)C(=O)[C@@H](CC(C)C)N(C)C1=O | 0.58 ×10⁻⁶ cm/s | –
CC(C)C[C@@H]1NC(=O)[C@@H](CC(C)C)N(C)C(=O)[C@H](CC(C)C)NC(=O)[C@H](Cc2ccc(O)cc2)NC(=O)[C@H]2CCCN2C(=O)[C@H](CC(C)C)NC1=O | – | 1.68 ×10⁻⁶ cm/s

Continued, values first:

Papp at 5 h, 50 µM [1] | Papp A→B [2] | Compound
0.11 ×10⁻⁶ cm/s | 0.59 ×10⁻⁶ cm/s | CC(C)C[C@@H]1NC(=O)[C@H](Cc2ccc(O)cc2)NC(=O)[C@H]2CCCN2C(=O)[C@@H](CC(C)C)NC(=O)[C@H](CC(C)C)NC(=O)[C@@H](CC(C)C)NC1=O
1.61 ×10⁻⁶ cm/s | 1.43 ×10⁻⁶ cm/s | CC(C)C[C@@H]1NC(=O)[C@H](Cc2ccc(O)cc2)NC(=O)[C@@H]2CCCN2C(=O)[C@@H](CC(C)C)NC(=O)[C@@H](CC(C)C)NC(=O)[C@@H](CC(C)C)NC1=O
0.11 ×10⁻⁶ cm/s | 0.14 ×10⁻⁶ cm/s | CC(C)C[C@@H]1NC(=O)[C@@H](CC(C)C)NC(=O)[C@@H](CC(C)C)NC(=O)[C@@H](CC(C)C)NC(=O)[C@H](Cc2ccc(O)cc2)NC(=O)[C@@H]2CCCN2C1=O
1.24 ×10⁻⁶ cm/s | 1.23 ×10⁻⁶ cm/s | CC(C)C[C@@H]1NC(=O)[C@H](Cc2ccc(O)cc2)NC(=O)[C@H]2CCCN2C(=O)[C@H](CC(C)C)NC(=O)[C@H](CC(C)C)NC(=O)[C@@H](CC(C)C)NC1=O
